Measurements published in patent publication US8785468B2, “Phenylalanine amide derivatives useful for treating insulin-related diseases and conditions” (Amgen Inc., priority 2009, dated 2014).

Protein sequences, listed by entry. Tags and fused reporters are not part of them.
UniProt Q7Z601, whole entry: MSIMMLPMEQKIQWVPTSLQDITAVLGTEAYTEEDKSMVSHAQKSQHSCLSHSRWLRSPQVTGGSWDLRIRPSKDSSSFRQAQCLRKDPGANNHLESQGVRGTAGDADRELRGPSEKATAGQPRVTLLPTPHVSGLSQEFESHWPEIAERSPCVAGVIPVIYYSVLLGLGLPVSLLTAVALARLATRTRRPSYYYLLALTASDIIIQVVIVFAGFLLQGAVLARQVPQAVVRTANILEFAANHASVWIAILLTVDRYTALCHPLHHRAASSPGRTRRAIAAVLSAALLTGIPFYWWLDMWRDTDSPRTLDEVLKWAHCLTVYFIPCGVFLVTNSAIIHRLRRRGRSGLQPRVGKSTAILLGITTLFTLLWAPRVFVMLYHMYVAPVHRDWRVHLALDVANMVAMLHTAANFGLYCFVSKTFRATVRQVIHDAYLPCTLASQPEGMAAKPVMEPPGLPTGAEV

Target: human receptor found in pancreatic islet cells (Homo sapiens, UniProt Q7Z601)
Experiment: Activation of intracellular IP3 signaling in transfected cells (Activation Assay)
Details: read-out: Activity (EC50); calculated from IP3 concentration measurements in cells transfected with the human receptor; tested form: TFA

In the case of `Nc1nnc(-c2cc(-c3ccncc3)cc3c2CCN3C(=O)[C@@H](N)Cc2ccccc2)o1`, the EC50 is reported as 100 to 1000 nM.
